Results: patent publication US7514240B2, “EGR-EGFR complex” (Japan Science and Technology Agency, priority 2002, dated 2009)

Legend:
[1] = tested on: extracellular signal-regulated protein kinases (ERK); test: EGF-dependent ERK phosphorylation in CHO cells expressing variant EGFR; assay type: cell-based, Chinese hamster; conditions: transiently transfected CHO cells, human EGF stimulation for 5 minutes
Method: The site-directed mutagenesis method was performed using the QuickChange® site-directed mutagenesis kit according to the instructions of the manufacturer (Stratagene). The mutation in the EGFR sequence was confirmed by DNA sequence analysis. CHO cells were cultured in Minimum Essential Medium α supplemented with 10% calf serum. By using the FuGENE6 method according to the manufacturer's recommendation (Roche), the cells were transfected with an expression vector carrying the wild type or variant receptor.
The expression of EGFR and the downstream ERKs activation in the transiently transfected CHO cells were determined according to Kim et al (Kim, J.-H. et al., Eur. J. Biochem. 269: 2323-2329, 2002). Moreover, immunoblot analyse were performed using an anti-EGFR polyclonal antibody (Upstate Biotechnology), an anti-phosphorus-p44/42 MAP kinase E10 monoclonal antibody, and an anti-MAP kinase polyclonal antibody (Cell Signaling Technology).

[2] = tested on: EGFR; test: EGF-induced autophosphorylation of EGFR in transfected CHO cells; assay type: cell-based; conditions: transiently transfected CHO cells
Method: (§1) EGFR autophosphorylation was determined by the method previously reported by Sato et al (Sato, C. et al., J. Biochem (Tokyo) 127: 65-72, 2000). As for the EGF-binding assay, the transiently transfected cells were maintained for 24 hours in a 24-well plate coated with fibronectin, and then starved for 24 hours in serum-free medium. […] Subsequently, the cells were lysed in 0.5 ml of 0.5 M NaOH, and then radioactivity was measured using a γ counter.

[3] = tested on: human EGF; test: 125I-labeled EGF-binding assay on CHO cells expressing variant EGFR; conditions: 2 nM 125I-labeled EGF, 1 hour; transiently transfected CHO cells
Method: as §1

| Substance | EGF-dependent ERK phosphorylation (biological activity of variant EGFR) [1] | EGF-induced EGFR autophosphorylation [2] | affinity for EGF in 125I EGF-binding assay [3] |
| --- | --- | --- | --- |
| R285S/Y251A: EGFR variant generated by a combination of R285S mutation with Y251A | almost complete loss of the activity | incapable of EGFR autophosphorylation | much lower affinity for EGF |
| Y251A: EGFR variant, substitution of Tyr251 with Ala | negligible effects |  |  |
| R285S/F263A: EGFR variant generated by a combination of R285S mutation with F263A | almost complete loss of the activity | incapable of EGFR autophosphorylation | much lower affinity for EGF |
| R285Y: full-length EGFR variant, substitution of Arg285 with Tyr | negligible effect |  |  |
| F263A: EGFR variant, substitution of Phe263 with Ala | negligible effects |  |  |
| R285S: full-length EGFR variant, substitution of Arg285 with Ser | reduced the biological activity |  |  |
| substitution of Arg405 with Glu: EGFR variant, substitution of Arg405 of domain III with Glu | abolished | abolished | abolished |
